Values of other authors in US5668144A, “1-azabicyclopheptane derivatives” (American Home Products Corporation, priority 1996, dated 1997).

Tested on: m1 receptors
Conditions: cited from earlier work

C[N+](C)(C)CCOC(N)=O [carbachol]
activation of m1 receptors (in words): able to fully activate m1 receptors
